Earlier results, collected in patent US11390616B2 (BRISTOL-MYERS SQUIBB COMPANY, priority 2015, dated 2022).

The chains behind the UniProt entries cited, without tags or fusion partners. Where a name states a change or a piece, a line headed by the entry shows the natural chain unless it says otherwise.
UniProt P35414: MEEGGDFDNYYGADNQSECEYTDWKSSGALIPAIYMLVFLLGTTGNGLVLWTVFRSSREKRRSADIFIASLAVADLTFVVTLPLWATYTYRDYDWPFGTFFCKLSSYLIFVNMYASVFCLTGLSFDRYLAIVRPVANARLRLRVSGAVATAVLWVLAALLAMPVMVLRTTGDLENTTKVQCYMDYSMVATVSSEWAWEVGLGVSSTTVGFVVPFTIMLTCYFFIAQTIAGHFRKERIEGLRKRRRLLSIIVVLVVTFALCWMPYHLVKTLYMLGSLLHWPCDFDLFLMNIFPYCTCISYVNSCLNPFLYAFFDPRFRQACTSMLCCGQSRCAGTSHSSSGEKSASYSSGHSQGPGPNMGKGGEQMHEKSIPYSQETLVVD

Target: APJ receptor (Homo sapiens, UniProt P35414)
Settings: reported; Pitkin et al. 2010; cited from earlier work

## Apelin
  binding affinity: sub-nanomolar range
